Target: GLP-1 receptor on RIN 1046-38 clonal rat beta-cells (rat) (UniProt P32301)
Assay: cell-based or functional assay

- NICD nuclear localization in RIN cells in the presence of glucose: < 7.5 fold
- transcriptional activation of the UAS promoter (Notch deltaE-GVP / UAS-luciferase gamma-secretase assay in RIN cells): > 20 fold
Substance: Exendin-4 (from UniProt P26349) (peptide)
